# Source: article PMC3356457 (Nature, 2012)
# By UniProt entry, the sequences of proteins in these tests, tags left out.
# UniProt P41145, whole entry E297A: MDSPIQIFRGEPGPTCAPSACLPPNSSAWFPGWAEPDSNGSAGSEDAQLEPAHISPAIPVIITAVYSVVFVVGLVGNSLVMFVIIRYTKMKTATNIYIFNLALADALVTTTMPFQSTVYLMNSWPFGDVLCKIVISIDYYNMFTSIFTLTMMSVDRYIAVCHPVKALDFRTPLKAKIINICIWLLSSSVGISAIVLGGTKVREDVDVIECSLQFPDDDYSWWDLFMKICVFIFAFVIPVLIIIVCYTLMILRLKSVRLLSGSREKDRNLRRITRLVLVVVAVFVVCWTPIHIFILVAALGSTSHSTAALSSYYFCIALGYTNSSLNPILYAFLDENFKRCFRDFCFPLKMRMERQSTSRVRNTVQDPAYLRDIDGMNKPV
# Molecular target: hKOR E297A (Homo sapiens, UniProt P41145, E297A)
# Format: binding
structure (smiles),measurement,value
Oc1ccc2c3c1O[C@H]1c4[nH]c5c(c4C[C@@]4(O)[C@@H](C2)N(CC2CC2)CC[C@]314)C[C@@]1(O)[C@H]2Cc3ccc(O)c4c3[C@@]1(CCN2CC1CC1)[C@H]5O4 [nor-BNI],Effect of Glu297Ala mutation on binding,significant drop
